Measured values taken from PubChem BioAssay (NCATS).
Only a part is listed here, and it is no random draw. Inconclusive results are not listed. Some structures show a salt or complex split into parts, the way the source records it. Activity calls are given as the source filed them. The call rests on the fitted dose curve; in most records, active means well fitted curve in the direction sought with a large enough effect; inconclusive means small, poorly fitted or top-dose-only effect, or another doubt; inactive means no such curve, though single readings can be large; an effect the other way counts as inactive or inconclusive.

By UniProt entry, the sequences of proteins in these tests, tags left out.
UniProt P24462, whole entry: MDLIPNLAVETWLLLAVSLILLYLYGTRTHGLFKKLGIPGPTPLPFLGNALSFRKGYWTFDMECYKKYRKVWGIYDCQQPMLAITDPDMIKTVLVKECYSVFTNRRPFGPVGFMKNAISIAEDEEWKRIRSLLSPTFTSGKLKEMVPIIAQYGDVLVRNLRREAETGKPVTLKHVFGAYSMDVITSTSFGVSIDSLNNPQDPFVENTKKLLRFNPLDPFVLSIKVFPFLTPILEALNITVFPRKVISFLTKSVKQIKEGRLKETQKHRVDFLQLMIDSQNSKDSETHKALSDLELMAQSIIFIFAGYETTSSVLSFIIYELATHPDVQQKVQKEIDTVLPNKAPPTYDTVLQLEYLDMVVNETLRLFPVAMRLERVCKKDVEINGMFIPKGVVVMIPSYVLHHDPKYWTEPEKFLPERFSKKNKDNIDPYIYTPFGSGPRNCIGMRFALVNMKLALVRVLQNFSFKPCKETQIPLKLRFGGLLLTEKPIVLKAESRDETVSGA

Experiments:
[1] = biological target: Cytochrome P450 3A7 (Homo sapiens) (UniProt P24462); experiment: Cytochrome P450 family 3 subfamily A member 7 (CYP3A7) small molecule antagonists: luciferase qHTS assay (AID 1963596; further: on the % scale 0 is the no-effect control and ±100 the full control effect; nearly all actives have a fitted effect of over 40% in size); conditions: P450-Glo CYP3A7 enzyme luminescence, 1 h; at 57.4 µM (top of the series) unless noted
Outline: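 Enzyme-substrate mix + cpd (DMSO), 10 min RT; + NADPH regen system, 1 h RT; + luciferin detection reagent, 20 min RT; luminescence read. Proluciferin substrate, P450-Glo format, 1536-well qHTS.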

[2] = Cellular viability qHTS for adrenocortical cancer (ACC) cell line SW-13 (AID 1963989); conditions: SW-13 ACC cells viability, CellTiter-Glo, 48 h; hits give low values;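 further: cells grown in serum-free medium with ITS supplement; on the % scale 0 is the no-effect control and ±100 the full control effect; nearly all actives have a fitted effect of over 65% in size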
Outline: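 48 h treatment, SW-13 in ITS/DMEM serum-free; doses up to 46 uM; readout CellTiter-Glo luminescence; curve fit four-parameter logistic.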

[3] = Cellular viability qHTS for adrenocortical cancer (ACC) cell line NCI-H295R (AID 1963990); conditions: CellTiter-Glo ATP luminescence, 48 h; at 46.1 µM (top of the series) unless noted;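 further: 0% = DMSO only wells and -100% = full killing with cytotoxic reference compound; nearly all actives have a fitted effect of over 60% in size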
Outline: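 Compound titrations (up to 46 uM final) are applied to NCI-H295R cultures for 48 h at 37C. Viable cell number is estimated by CellTiter-Glo signal, normalised to DMSO and doxorubicin controls.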

[4] = Viability qHTS for spleen associated tyrosine kinase inhibitor (SYKi) naive MV4-11 cells (AID 1963823); conditions: MV4-11 AML viability, CellTiter-Glo luminescence, 72 h; at 45 µM (top of the series) unless noted; further: nearly all actives have a fitted effect of over 40% in size
Outline: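 Viability of MV4-11 AML cells lacking prior SYK inhibitor exposure is scored by CellTiter-Glo luminescence following 72 hr compound incubation at 37 C, 5% CO2, seeded at 500 cells per well.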

[5] = Viability qHTS for spleen associated tyrosine kinase inhibitor (SYKi) drug resistant MV4-11 cells (AID 1963824); further: nearly all actives have a fitted effect of over 35% in size; further: potency means the concentration at half of the fitted maximal effect
Outline: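 SYK inhibitor-resistant MV4-11 AML cells, 500 per well, added to predispensed compounds and incubated 72 hr at 37 C, 5% CO2. Viability measured by CellTiter-Glo luminescence after 10 min at room temperature.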

[6] = Quantitative highthroughput screen to assess conditional lethalithy of NOMO1 cells grown in RPMI1640 with untreated serum (RPMI+s) (AID 1963876); conditions: NOMO1 AML cells in RPMI+serum, CellTiter-Glo viability, 48 h; at 23.2 µM (top of the series);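 further: 100% = DMSO wells and 0% = empty wells without cells; nearly all actives have a fitted effect of over 35% in size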
Outline: (§1)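 Each medium arm—HPLM with 10% dialyzed FBS, or RPMI1640 with 5 mM glucose and 10% untreated or dialyzed FBS—was screened against an 11-point, 3-fold compound titration for 48 h at 37 °C, with CellTiter-Glo luminescence as endpoint.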

[7] = Quantitative highthroughput screen to assess conditional lethalithy of NOMO1 cells grown in RPMI1640 with dialyzed fetal bovine serum (RPMI+ds) (AID 1963877); conditions: NOMO1 in RPMI+dialyzed FBS viability, ATP luminescence, 48 h; at 23.2 µM (top of the series);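 further: 100% = DMSO control wells and 0% = empty wells; nearly all actives have a fitted effect of over 30% in size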
Outline: as §1

[8] = Quantitative highthroughput screen to assess conditional lethalithy of NOMO1 cells grown in Human Plasma-Like Medium with dialyzed fetal bovine serum (HPLM+ds) (AID 1963878); conditions: NOMO1 AML cells in HPLM+ds, CellTiter-Glo viability, 48 h; at 23.2 µM (top of the series);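 further: 100% = DMSO wells and 0% = empty wells on each plate; nearly all actives have a fitted effect of over 35% in size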
Outline: as §1

[9] = Quantitative highthroughput screen to assess conditional lethalithy of P12 Ichikawa cells grown in Human Plasma-Like Medium with dialyzed fetal bovine serum (HPLM+ds) (AID 1963879); conditions: ATP luminescence, 48 h; at 23.2 µM (top of the series); further: nearly all actives have a fitted effect of over 35% in size
Outline: as §1

[10] = Quantitative highthroughput screen to assess conditional lethalithy of P12 Ichikawa cells grown in RPMI1640 with dialyzed fetal bovine serum (RPMI+ds) (AID 1963880); conditions: ATP luminescence, 48 h; at 23.2 µM (top of the series)
Outline: as §1

[11] = Quantitative highthroughput screen to assess conditional lethalithy of P12 Ichikawa cells grown in RPMI1640 with untreated serum (RPMI+s) (AID 1963881); conditions: ATP luminescence, 48 h; at 23.2 µM (top of the series)
Outline: as §1

[12] = Quantitative highthroughput screen to assess conditional lethalithy of SEM cells grown in Human Plasma-Like Medium with dialyzed fetal bovine serum (HPLM+ds) (AID 1963882); conditions: SEM B-ALL cells in HPLM+ds, CellTiter-Glo viability, 48 h; at 23.2 µM (top of the series); further: nearly all actives have a fitted effect of over 35% in size
Outline: as §1

[13] = Quantitative highthroughput screen to assess conditional lethalithy of SEM cells grown in RPMI1640 with unreated serum (RPMI+s) (AID 1963883); conditions: SEM B-ALL cells, CellTiter-Glo viability, 48 h; at 23.2 µM (top of the series)
Outline: as §1

[14] = Quantitative highthroughput screen to assess conditional lethalithy of SEM cells grown in RPMI1640 with dialyzed fetal bovine serum (RPMI+ds) (AID 1963884); conditions: SEM B-ALL cells, RPMI+dialyzed FBS, CellTiter-Glo viability, 48 h; at 23.2 µM (top of the series)
Outline: as §1

CCOP(=O)(CC)Oc1ccc([N+](=O)[O-])cc1 (stereo unspecified)
inactive: activity change, negative = inhibition [1] -2.98% | activity (max response) [2] -6.26% | activity change, negative = viability loss [3] -13%

Cc1cccc([N+](=O)[O-])c1[N+](=O)[O-]
inactive: activity change, negative = inhibition [1] 32.1% [at 115 µM] | activity (max response) [2] 11.5% | activity change, negative = viability loss [3] 0.663% [at 92.7 µM]

OCCSCCO
inactive: activity change, negative = inhibition [1] -4.06% | viability (% of control) [4] 101% | Potency [5] | activity change, negative = viability loss [3] -3.55%

C/C1=C2N=C(/C=C3N=C(/C(C)=C4\N=C(C(CC(N)=O)C4(C)CCC(=O)NCC(C)OP(=O)([O-])OC4C(CO)OC(n5cnc6cc(C)c(C)cc65)C4O)C4(C)N=C1C(CCC(N)=O)C4(C)CC(N)=O)C(CCC(N)=O)C\3(C)C)C(CCC(N)=O)C/2(C)CC(N)=O.[C-]#N.[Co] (stereo unspecified)
inactive: viability (% of control) [4] 67.2% [at 17.3 µM] | Potency [5]

O=[N+]([O-])c1cccc([N+](=O)[O-])c1
inactive: activity change, negative = inhibition [1] 135% [at 115 µM] | viability (% of control) [4] 77.4% [at 91.9 µM] | activity (max response) [2] -6.97%

C/C1=C2N=C(/C=C3N=C(/C(C)=C4\[N-][C@@](C)([C@@H]5N=C1[C@](C)(CCC(=O)NC[C@@H](C)OP(=O)([O-])O[C@H]1[C@@H](O)[C@@H](n6cnc7cc(C)c(C)cc76)O[C@@H]1CO)[C@H]5CC(N)=O)[C@@](C)(CC(N)=O)[C@@H]4CCC(N)=O)[C@@](C)(CC(N)=O)[C@@H]\3CCC(N)=O)C(C)(C)[C@@H]/2CCC(N)=O.[C-]#N.[Co+3]
inactive: activity change, negative = inhibition [1] 132% | viability (% of control) [4] 55.6% | Potency [5] | activity change, negative = viability loss [3] -28.1%

C/C1=C2/N=C(C(CC(N)=O)C2(C)CCC(=O)NCC(C)OP(=O)([O-])OC2C(CO)OC(n3cnc4cc(C)c(C)cc43)C2O)C2(C)N=C(/C(C)=C3N=C(/C=C4N=C1C(CCC(N)=O)C\4(C)C)C(CCC(N)=O)C/3(C)CC(N)=O)C(CCC(N)=O)C2(C)CC(N)=O.[C-]#N.[Co] (stereo unspecified)
inactive: viability (% of control) [4] 78.3% | activity change, negative = viability loss [3] -26.6%
active: Potency [5] 20.9 µM

CC1=C2[N-][C@@](C)([C@@H]3N=C(C(C)=C4N=C(C=C5N=C1[C@@](C)(CC(N)=O)[C@H]5CCC(N)=O)C(C)(C)[C@H]4CCC(N)=O)[C@](C)(CCC(=O)NC[C@@H](C)OP(=O)([O-])O[C@H]1[C@@H](O)[C@@H](n4cnc5cc(C)c(C)cc54)O[C@H]1CO)[C@H]3CC(N)=O)[C@@](C)(CC(N)=O)[C@@H]2CCC(N)=O.[C-]#N.[Co+3]
inactive: viability [6] 76.9% | viability [7] 88.5% | viability [8] 87.2% | viability [9] 87.4% | viability [10] 93.1% | viability [11] 86.5% | viability [12] 90.9% | viability [13] 87.8% | viability [14] 84.5%
